Assay results as given in patent publication US4568690A, “1-Methyl-5-p-methylbenzoylpyrrole-2-acetamidoacetanilides with antiinflammatory, analgesic, antipyretic and anti-platelet aggregant activity” (priority 1983, dated 1986).

Experiments:
in vivo [1] = conditions: mouse
in vivo [2] = conditions: rat, po
gastric mucosa = experiment: gastric tolerance (ulcerogenic activity); conditions: orally, four consecutive days; for Incidence % / 10: groups of 10 animals

SMILES | LD50 (in vivo [1]; ip) [mg/kg] | LD50 (in vivo [1]; po) [mg/kg] | LD50 (in vivo [2]) [mg/kg] | Index gastric damage (gastric mucosa; 50 mg/kg) | Index gastric damage, signed figure (untitled; difference from Carrier index 8) (gastric mucosa; 50 mg/kg) | Incidence % / 10 (gastric mucosa; 50 mg/kg) [%/10] | Index gastric damage (gastric mucosa; 100 mg/kg) | Index gastric damage, signed figure (untitled; difference from Carrier index 8) (gastric mucosa; 100 mg/kg) | Incidence % / 10 (gastric mucosa; 100 mg/kg) [%/10] | Index gastric damage (gastric mucosa; 200 mg/kg) | Index gastric damage, signed figure (untitled; difference from Carrier index 8) (gastric mucosa; 200 mg/kg) | Incidence % / 10 (gastric mucosa; 200 mg/kg) [%/10]
Cc1ccc(C(=O)c2ccc(CC(=O)NCC(=O)Nc3cccc(C)c3C)n2C)cc1 [Compound 1f] | 1000 | 1400 | 1300 | 8 | +0 | 6 | 12 | +4 | 7 | 14 | +6 | 8
Cc1ccc(C(=O)c2ccc(CC(=O)O)n2C)cc1 [Tolmetin Na.2H2 O, reference compound] | – | – | – | 11 | +3 | 7 | 16 | +8 | 10 | 17 | +9 | 10
